Data on 1 substance can be found in publication PMC5157691 (Research and reports in biochemistry, 2016).

Experiment [1] has as its target K18-37, C-terminal part of LL-37 (residues 18-37) (human). The experiment in a line: cell adhesion assay.
Experiment [2] has as its target LL-37 peptide (human cathelicidin peptide) (human). The experiment in a line: cell adhesion assay.

As to “integrin αMβ2 (Mac-1, CD11b/CD18) on HEK293 cells stably expressing Mac-1 (from UniProt P11215 17-1152; P05107 23-769) (receptor)”, in experiment [1], the percent of added cells adhered (coating concentration 5 μg/ml, maximal adhesion) was determined as 47%. This substance also gave a percent of added cells adhered (coating concentration 2 μg/ml) in experiment [2] of 52%.
